Reference: patent US20080280851A1 (Clavis Pharma AS, priority 2005, published 2008)

System: Colon 6044 (human colon carcinoma)
Assay: Antitumour activity in Co6044 after oral administration (Table 3)
Conditions: all tested doses

Compound: Nc1ccn([C@@H]2O[C@H](CO)[C@@H](O)C2(F)F)c(=O)n1 [Gemcitabine, 2′,2′-difluorodeoxycytidine, reference compound]
- toxicity after oral administration: toxic at all tested doses
